This is an account of results in ChEMBL document CHEMBL1135602 (J Med Chem, 2002).

Amino acid sequences for entries named in this document (tags omitted). A change or cut given only in a name is not applied to a line headed by its entry.
UniProt P13922: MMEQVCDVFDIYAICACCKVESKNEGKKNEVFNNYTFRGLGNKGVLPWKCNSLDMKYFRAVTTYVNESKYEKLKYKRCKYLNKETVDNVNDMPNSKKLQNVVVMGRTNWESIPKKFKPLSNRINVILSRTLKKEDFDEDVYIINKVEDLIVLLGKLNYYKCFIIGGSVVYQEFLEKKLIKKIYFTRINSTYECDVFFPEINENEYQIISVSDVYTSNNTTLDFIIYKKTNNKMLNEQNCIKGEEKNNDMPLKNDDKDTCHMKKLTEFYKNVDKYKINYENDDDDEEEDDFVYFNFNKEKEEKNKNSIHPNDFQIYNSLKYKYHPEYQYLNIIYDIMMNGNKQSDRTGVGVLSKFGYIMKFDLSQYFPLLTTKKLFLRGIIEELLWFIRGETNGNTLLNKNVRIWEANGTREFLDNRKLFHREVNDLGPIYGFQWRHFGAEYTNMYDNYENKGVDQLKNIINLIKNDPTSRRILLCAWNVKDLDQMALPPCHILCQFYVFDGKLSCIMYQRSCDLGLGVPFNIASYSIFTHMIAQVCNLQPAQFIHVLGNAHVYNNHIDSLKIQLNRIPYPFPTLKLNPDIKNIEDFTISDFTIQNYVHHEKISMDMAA

Assay [1] has as its target Bifunctional dihydrofolate reductase-thymidylate synthase (Plasmodium falciparum K1) (UniProt P13922). As to the kind of experiment: Inhibition of Plasmodium falciparum wild-type dihydrofolate reductase (DHFR) relative to Pyrimethamine.
Another assay deals with Plasmodium falciparum. As to the kind of experiment: IC50 ratio against Plasmodium falciparum K1CB1/TM4. In kind it is functional.

With `CCc1nc(N)nc(N)c1-c1ccc(OCc2ccc(Cl)cc2Cl)c(OC)c1`, the Relative activity in assay [1] was 1.7. In the assay on Plasmodium falciparum, the Ratio is recorded as above 14.
